Values of other authors, collected in PMC8679839, “Interleukin‐2‐inducible T‐cell kinase (Itk) signaling regulates potent noncanonical regulatory T cells” (Clinical and Translational Medicine, 2021).

Tested on: ICOS‐expressing Tregs
Settings: IL-2 therapy
Source text: Published data have shown that ICOS‐deficient Tregs cannot suppress inflammation.[35] […] Our data provided evidence that inhibition of ITK increases ncTregs which express ICOS, and high expression of ICOS is pivotal for Treg function.[37]

For IL‐2: IL‐2 therapy, the “effect on ICOS-expressing Tregs” value is listed as “significantly affects ICOS‐expressing Tregs”.
